Values quoted from earlier work as cited in publication PMC6409773 (Marine Drugs, 2019).

The chains behind the UniProt entries cited, without tags or fusion partners.
UniProt P25103, whole entry: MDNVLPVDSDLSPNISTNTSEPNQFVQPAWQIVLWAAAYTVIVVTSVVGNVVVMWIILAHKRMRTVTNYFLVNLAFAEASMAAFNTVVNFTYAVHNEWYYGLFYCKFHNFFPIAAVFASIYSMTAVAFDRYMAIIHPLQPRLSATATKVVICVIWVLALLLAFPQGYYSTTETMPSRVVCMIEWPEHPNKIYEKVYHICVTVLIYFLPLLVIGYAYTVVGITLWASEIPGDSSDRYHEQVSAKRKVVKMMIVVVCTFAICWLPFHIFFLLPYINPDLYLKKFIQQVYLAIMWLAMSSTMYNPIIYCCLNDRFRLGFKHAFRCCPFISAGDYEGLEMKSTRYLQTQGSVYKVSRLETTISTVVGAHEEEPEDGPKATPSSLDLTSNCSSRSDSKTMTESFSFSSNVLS

Biological target: NK1 (h) Tachykinin (Homo sapiens, UniProt P25103)
Design: method as in Eurofins Panlab
Details: as reported by Eurofins Panlab, ref Eurofins Panlab, read-out: Reference Agonists of Respective Target Receptors EC50; cited from earlier work

Question: With “[Sar9, Met(O2)11]-Substance P [[Sar9, Met(O2)11]-SP]” as the substance, how does the EC50 read?
Answer: 0.094 nM
